According to patent US7888332B2, “Hydrazide-containing CFTR inhibitor compounds and uses thereof” (The Regents of the University of California, priority 2004, dated 2011):
pKi: −log10 of the molar value.

Sequences of proteins named here, by UniProt entry; tags and fusion partners are left off.
UniProt P13569, whole entry: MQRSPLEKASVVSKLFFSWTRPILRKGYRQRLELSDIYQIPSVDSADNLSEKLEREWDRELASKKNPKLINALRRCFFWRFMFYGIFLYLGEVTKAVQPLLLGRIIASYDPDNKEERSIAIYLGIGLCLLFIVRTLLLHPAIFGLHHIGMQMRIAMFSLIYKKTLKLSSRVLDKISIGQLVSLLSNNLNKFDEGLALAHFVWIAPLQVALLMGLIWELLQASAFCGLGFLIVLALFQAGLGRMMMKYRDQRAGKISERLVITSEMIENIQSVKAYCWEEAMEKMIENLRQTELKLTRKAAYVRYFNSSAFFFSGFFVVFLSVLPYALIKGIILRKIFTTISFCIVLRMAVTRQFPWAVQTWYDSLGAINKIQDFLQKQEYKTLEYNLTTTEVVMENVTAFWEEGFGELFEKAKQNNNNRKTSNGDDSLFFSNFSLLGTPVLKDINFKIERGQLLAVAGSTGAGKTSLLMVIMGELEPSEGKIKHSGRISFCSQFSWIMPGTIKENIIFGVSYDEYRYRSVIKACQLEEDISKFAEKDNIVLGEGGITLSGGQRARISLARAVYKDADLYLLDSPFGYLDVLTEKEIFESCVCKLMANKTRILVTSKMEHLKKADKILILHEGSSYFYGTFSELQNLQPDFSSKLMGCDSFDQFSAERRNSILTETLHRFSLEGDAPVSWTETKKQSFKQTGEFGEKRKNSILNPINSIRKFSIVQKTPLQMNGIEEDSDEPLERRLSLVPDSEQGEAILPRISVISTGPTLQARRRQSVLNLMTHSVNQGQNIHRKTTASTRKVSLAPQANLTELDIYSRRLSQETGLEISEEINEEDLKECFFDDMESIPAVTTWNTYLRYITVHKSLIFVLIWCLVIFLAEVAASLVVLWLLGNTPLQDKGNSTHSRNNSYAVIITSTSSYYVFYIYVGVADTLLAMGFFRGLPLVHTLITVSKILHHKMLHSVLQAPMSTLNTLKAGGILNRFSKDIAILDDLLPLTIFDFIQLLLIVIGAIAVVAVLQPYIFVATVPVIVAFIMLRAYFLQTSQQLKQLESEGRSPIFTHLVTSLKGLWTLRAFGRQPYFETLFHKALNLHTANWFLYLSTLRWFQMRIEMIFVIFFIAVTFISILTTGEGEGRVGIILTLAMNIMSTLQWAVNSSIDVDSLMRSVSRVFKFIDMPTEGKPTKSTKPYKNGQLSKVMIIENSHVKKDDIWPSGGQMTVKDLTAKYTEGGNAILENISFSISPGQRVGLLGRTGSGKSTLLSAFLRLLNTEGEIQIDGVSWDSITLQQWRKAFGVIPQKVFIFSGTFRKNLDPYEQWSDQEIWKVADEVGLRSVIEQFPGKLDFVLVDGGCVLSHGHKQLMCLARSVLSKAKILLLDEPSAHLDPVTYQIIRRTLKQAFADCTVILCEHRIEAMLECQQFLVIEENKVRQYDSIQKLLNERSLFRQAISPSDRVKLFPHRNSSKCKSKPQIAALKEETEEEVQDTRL

Target: CFTR (Homo sapiens, UniProt P13569)
Assay: Short-circuit current (apical Cl− current) analysis on permeabilized CFTR-expressing FRT cells
Details: read-out: Ki of screening hits; dose-response measurements, confirmed by short-circuit current analysis

| Structure (SMILES) | pKi |
| --- | --- |
| CCOC(=O)C(NC(=O)c1oc(=O)c2ccccc2c1-c1ccc(C)cc1)C(=O)OCC | 5.15 |
| CCOC(=O)C1CCN(C(=O)Cn2cnc3sc4c(c3c2=O)CCCC4)CC1 | 5.30 |
| CCOC(=O)CSc1nc2ccccc2c(=O)n1-c1ccccc1C | 5.30 |
